Settings: compared with isomeric counterpart BP66

Substance: Asn-Pro-Asn-Ala-Asn-(Apro-Asn-Ala-Asn-Pro-Asn-Ala-Asn-Pro-Asn-Glu)cyclo-Asn-Pro-Asn-Ala attached to a PE moiety [UK39]
- Proneness to degradation in aqueous solution: less prone to be degraded in aqueous solution than its isomeric counterpart BP66

Reference: patent US7569541B2 (priority 2003, dated 2009)
